Molecular target: T1, human recombinant CD16b (R&D Systems) (human, UniProt O75015, in part)
T1 construct: Used as capture antigen in ELISA; also called FcyRIIIb; Fc gamma receptor III
Assay: ELISA, human recombinant CD16b as capture antigen; legend: - not detectable

B1: TGN1412 (antibody, human IgG4, kappa)
heavy: QVQLVQSGAEVKKPGASVKVSCKASGYTFTSYYIHWVRQAPGQGLEWIGCIYPGNVNTNYNEKFKDRATLTVDTSISTAYMELSRLRSDDTAVYFCTRSHYGLDWNFDVWGQGTTVTVSSASTKGPSVFPLAPCSRSTSESTAALGCLVKDYFPEPVTVSWNSGALTSGVHTFPAVLQSSGLYSLSSVVTVPSSSLGTKTYTCNVDHKPSNTKVDKRVESKYGPPCPSCPAPEFLGGPSVFLFPPKPKDTLMISRTPEVTCVVVDVSQEDPEVQFNWYVDGVEVHNAKTKPREEQFNSTYRVVSVLTVLHQDWLNGKEYKCKVSNKGLPSSIEKTISKAKGQPREPQVYTLPPSQEEMTKNQVSLTCLVKGFYPSDIAVEWESNGQPENNYKTTPPVLDSDGSFFLYSRLTVDKSRWQEGNVFSCSVMHEALHNHYTQKSLSLSLG
light: DIQMTQSPSSLSASVGDRVTITCHASQNIYVWLNWYQQKPGKAPKLLIYKASNLHTGVPSRFSGSGSGTDFTLTISSLQPEDFATYYCQQGQTYPYTFGGGTKVEIKRTVAAPSVFIFPPSDEQLKSGTASVVCLLNNFYPREAKVQWKVDNALQSGNSQESVTEQDSKDSTYSLSSTLTLSKADYEKHKVYACEVTHQGLSSPVTKSFNRGEC
notes: Humanized from mouse 5.11A1 by CDR grafting, IgG4; Two C-terminal variants of the heavy chain, differing by one residue, were seen on expression in CHO cells; also called humanized superagonistic anti-CD28 antibody of the IgG4 isotype
binding result: no binding
